Tested on: rat tail vein
Conditions: in vivo, iv, 100 mg/kg/day

Normalized Rank: 3.67
Total Rank: 88
Substance: 1-(2,4-difluorophenyl)-6-fluoro-1,4-dihydro-7-(3-methyl-1-piperazinyl)-4-oxo-3-quinoline carboxylic acid HCl--Mg--choline [Example 14]
